Earlier results, collected in patent US9597417B2, “Compositions and methods to evaluate hepatobiliary/gastrointestinal health, enterohepatic circulation, and drug interactions” (The United States of America as represented by the …, priority 2013, dated 2017).

Sequences of proteins named here, by UniProt entry; tags and fusion partners are left off.
UniProt Q12908, whole entry: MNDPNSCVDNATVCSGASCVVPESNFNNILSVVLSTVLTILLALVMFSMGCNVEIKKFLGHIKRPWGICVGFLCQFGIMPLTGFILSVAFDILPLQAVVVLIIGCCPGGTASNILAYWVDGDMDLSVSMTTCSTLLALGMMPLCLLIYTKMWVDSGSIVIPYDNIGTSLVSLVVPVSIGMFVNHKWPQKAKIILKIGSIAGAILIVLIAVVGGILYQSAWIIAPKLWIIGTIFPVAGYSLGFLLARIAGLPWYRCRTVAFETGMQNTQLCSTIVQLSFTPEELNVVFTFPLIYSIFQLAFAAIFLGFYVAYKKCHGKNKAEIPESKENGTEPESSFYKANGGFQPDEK
UniProt Q14973, whole entry: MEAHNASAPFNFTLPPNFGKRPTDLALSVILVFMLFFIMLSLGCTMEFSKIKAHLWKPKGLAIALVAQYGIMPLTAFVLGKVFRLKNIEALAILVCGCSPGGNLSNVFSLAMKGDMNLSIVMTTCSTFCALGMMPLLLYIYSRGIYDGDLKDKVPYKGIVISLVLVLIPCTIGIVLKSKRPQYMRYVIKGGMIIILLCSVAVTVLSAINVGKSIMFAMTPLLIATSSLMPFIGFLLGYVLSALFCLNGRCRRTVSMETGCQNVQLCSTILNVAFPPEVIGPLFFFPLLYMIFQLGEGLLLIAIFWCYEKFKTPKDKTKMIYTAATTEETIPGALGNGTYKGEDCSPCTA

Tests used:
[1] = biological target: human apical sodium dependent bile acid transporter (hASBT) (Homo sapiens, UniProt Q12908); details: read-out: ASBT Km; literature / historic data, same cell line; cited from earlier work
[2] = biological target: human Na+/taurocholate cotransporting polypeptide (hNTCP) (Homo sapiens, UniProt Q14973); details: read-out: NTCP Km; literature / historic data, same cell line; cited from earlier work

## C[C@H](CCC(=O)N[C@@H](CCCCNC(=O)C(F)(F)F)C(=O)O)[C@H]1CC[C@H]2[C@@H]3[C@H](O)C[C@@H]4C[C@H](O)CC[C@]4(C)[C@H]3C[C@H](O)[C@]12C
[1]
  Km: 39.4 µM
[2]
  Km: 8.99 µM
